Sequences of proteins named here, by UniProt entry; tags and fusion partners are left off.
UniProt P21397, whole entry: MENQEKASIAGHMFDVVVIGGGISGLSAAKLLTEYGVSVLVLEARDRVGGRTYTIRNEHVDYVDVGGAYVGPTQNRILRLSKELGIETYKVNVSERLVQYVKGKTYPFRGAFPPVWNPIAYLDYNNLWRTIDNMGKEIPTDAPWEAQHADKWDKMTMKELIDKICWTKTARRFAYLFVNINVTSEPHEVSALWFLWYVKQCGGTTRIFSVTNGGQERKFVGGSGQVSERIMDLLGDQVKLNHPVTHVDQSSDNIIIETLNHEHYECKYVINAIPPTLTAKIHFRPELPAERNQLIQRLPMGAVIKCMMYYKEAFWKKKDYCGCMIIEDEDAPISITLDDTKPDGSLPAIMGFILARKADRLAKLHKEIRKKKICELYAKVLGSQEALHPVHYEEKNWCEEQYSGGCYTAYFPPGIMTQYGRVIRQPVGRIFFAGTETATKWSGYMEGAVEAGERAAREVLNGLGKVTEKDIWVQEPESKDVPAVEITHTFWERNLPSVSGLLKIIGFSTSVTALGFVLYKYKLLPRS

According to PMC5613693, “Interactions of Desmethoxyyangonin, a Secondary Metabolite from Renealmia alpinia, with Human Monoamine Oxidase-A and Oxidase-B” (Evidence-based Complementary and Alternative Medicine : eCAM, 2017):

Biological target: T1, recombinant human MAO-A (Homo sapiens, UniProt P21397)
T1 construct: purchased BD Biosciences (Bedford, MA, USA); host or cells: baculovirus (Autographa californica) infected insect cells (BTI-TN-5B1-4)
Assay: Fluorometric kynuramine deamination assay, MAO-A inhibition (IC50)
Type: biochemical
Conditions: kynuramine 80 μM; mean ± SD of triplicate; read-out: Monoamine oxidase-A IC50
Method: Pure recombinant human monoamine oxidases (MAO-A and MAO-B) enzymes overexpressed in baculovirus (Autographa californica) infected insect cells (BTI-TN-5B1-4) were purchased from BD Biosciences, (Bedford, MA, USA).
Stock solutions of the test compounds/extracts were prepared in DMSO and diluted further in 0.1 M potassium phosphate buffer (pH 7.4) to obtain the desired concentrations. MAO-A and MAO-B activities were determined by fluorometric kynuramine deamination assay set up in 384-well solid white flat-bottom plates. MAO-A and MAO-B inhibition activities (IC50 values) were determined using fixed concentration of the substrate kynuramine and varying concentrations of the test compounds or extracts. The enzyme reactions were carried out in 0.1 M potassium phosphate buffer (pH-7.4). […] The reaction mixtures with buffer/substrate/inhibitor were preincubated for 10 minutes at 37°C, followed by addition of MAO-A and MAO-B to initiate the reaction. The solid white microplates were incubated for 20 minutes at 37°C and the enzymatic reaction was stopped by addition of 28 µL of 2 N NaOH to each well. The deaminated product of kynuramine, which spontaneously cyclizes to 4-hydroxyquinoline, was measured fluorometrically at 320 nm excitation and 380 nm emission wavelengths with a plate reader (SpectraMax M5, Molecular Devices, Sunnyvale, CA, USA). […]

Compound: NNCCc1ccccc1 [Phenelzine, phenelzine, reference compound]
- IC50: 235 ± 21.8 nM
